Earlier results on one substance are cited in patent US20160151380A1, “THERAPIES FOR DISEASES CAUSED BY ARTHROPOD-BORNE PARASITES” (THE REGENTS OF THE UNIVERSITY OF CALIFORNIA, priority 2013, published 2016).

By UniProt entry, the sequences of proteins in these tests, tags left out.
UniProt P53779, whole entry, species assumed: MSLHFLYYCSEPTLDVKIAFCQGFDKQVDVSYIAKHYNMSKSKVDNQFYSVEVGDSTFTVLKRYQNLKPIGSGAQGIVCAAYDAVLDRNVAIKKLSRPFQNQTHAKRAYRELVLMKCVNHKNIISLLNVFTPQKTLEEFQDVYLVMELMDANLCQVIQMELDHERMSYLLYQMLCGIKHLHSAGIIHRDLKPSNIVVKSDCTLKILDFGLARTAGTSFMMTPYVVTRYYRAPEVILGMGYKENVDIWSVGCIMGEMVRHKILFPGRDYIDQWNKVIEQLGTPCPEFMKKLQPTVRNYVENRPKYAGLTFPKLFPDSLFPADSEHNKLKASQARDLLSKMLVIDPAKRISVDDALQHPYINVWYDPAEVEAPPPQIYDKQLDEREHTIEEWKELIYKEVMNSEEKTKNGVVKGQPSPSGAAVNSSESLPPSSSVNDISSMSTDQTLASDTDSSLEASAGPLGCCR
UniProt P45983, whole entry, species assumed: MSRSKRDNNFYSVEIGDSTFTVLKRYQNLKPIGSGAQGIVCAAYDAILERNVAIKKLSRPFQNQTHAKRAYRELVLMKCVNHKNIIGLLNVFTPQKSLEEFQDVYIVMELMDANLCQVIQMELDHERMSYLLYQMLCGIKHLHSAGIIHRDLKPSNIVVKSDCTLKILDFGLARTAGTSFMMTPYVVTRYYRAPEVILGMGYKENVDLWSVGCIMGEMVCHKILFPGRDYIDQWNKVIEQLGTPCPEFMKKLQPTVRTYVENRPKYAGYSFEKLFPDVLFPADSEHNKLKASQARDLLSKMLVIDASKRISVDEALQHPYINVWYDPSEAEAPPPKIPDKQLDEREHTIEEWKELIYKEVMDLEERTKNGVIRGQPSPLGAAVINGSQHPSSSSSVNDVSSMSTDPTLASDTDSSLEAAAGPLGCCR

In one data set the target is JNK3 (Homo sapiens, UniProt P53779). The following applies: cited from earlier work.
The target in another data set is JNK1 (Homo sapiens, UniProt P45983). The following applies: cited from earlier work.

As a reminder, the IC50 is the point on the concentration scale where inhibition reaches its midpoint. As for JNKIN7, the IC50 on JNK3 and on JNK1 was below 40 nM throughout.
